# Data reported in publication PMC11879232 (Journal of Antimicrobial Chemotherapy, 2025).
# How the values were obtained:
# [1] = human, in vivo; cited from earlier work
# [2] = in vivo
# albumin = details: cited from earlier work
# Procedure: The therapeutic target often consists of a Cmin value of 10 mg/L,[9] although higher trough concentrations of 15 or 20 mg/L can be desired in severe infections. […] Note that renal function expressed as eGFR was not found to have an impact on CLKRT, consistent with the results of Aulin et al.[19] […] The model predicts an increase in 0.016 L/h and 0.19 L, respectively, for an increment of 1 kg of body weight.
# [3] = human, in vivo
# [4] = in vivo; remark: listed apart in the source
substance,measurement,setting,value
teicoplanin,"V1, values reported in the literature",[1],2.07 to 2.28 L
same,"renal clearance, published range",[1],0.105 to 0.176 L/h
same,"CLD (intercompartmental clearance), θCLD",[2],0.292 L/h
same,"CLD, fixed effect estimate",[2],0.29 L/h
same,"CLKRT (haemofilter clearance), θCLKRT",[2],0.119 L/h
same,CLKRT lower than CLR,[2],30%
same,"CLKRT, fixed effect estimate",[2],0.11 L/h
same,"CLR (renal clearance), θCLR",[2],0.169 L/h
same,CLR in patients with CKRT,[2],^aCLR in patients with CKRT was estimated to be zero.
same,"CLR, fixed effect estimate",[2],0.17 L/h
same,"V1 (apparent volume of distribution of the central compartment), θV1",[2],θV1=1.56(17) L
same,"V1, fixed effect estimate",[2],1.49 L
same,"V2 (apparent volume of distribution of the peripheral compartment), θV2",[2],θV2=3.03(30) L
same,"V2, fixed effect estimate",[2],2.97 L
same,individual estimates of CLKRT,[2],0.099 to 0.598 L/h
same,model-predicted increase in CLR for an increment of 1 kg of body weight,[2],0.016 L/h
same,model-predicted increase in V1 for an increment of 1 kg of body weight,[2],0.19 L
same,"θFILT_Large, factor on CLKRT",[2],5.04
same,"θFILT_Med, factor on CLKRT",[2],3.58
same,bound to albumin,albumin,> 90%
same,"KD, dissociation constant of the drug–albumin complex","albumin; critically ill paediatric patients, population model estimate, ref Aulin et al., 19",64.2 µg/mL
same,patients reaching target trough concentration (Cmin) of 10 mg/L,[3],59%
same,"adverse effect, including nephrotoxicity or hepatotoxicity, from the treatment",[4],No patient experienced any adverse effect
